Data: article PMC3227451, “Structure-based development of novel sirtuin inhibitors” (Aging (Albany NY), 2011)

Protein sequences, listed by entry. Tags and fused reporters are not part of them. Residues count along the entry.
UniProt Q9NXA8, 34-302 limits assumed: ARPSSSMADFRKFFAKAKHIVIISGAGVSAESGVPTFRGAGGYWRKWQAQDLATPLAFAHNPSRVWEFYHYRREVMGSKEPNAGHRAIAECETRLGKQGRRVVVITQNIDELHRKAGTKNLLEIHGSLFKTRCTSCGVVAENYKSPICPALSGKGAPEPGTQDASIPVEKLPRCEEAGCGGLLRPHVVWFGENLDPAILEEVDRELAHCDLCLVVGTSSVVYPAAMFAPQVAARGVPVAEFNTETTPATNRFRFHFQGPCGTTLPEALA
UniProt Q8IXJ6, 34-356 limits assumed: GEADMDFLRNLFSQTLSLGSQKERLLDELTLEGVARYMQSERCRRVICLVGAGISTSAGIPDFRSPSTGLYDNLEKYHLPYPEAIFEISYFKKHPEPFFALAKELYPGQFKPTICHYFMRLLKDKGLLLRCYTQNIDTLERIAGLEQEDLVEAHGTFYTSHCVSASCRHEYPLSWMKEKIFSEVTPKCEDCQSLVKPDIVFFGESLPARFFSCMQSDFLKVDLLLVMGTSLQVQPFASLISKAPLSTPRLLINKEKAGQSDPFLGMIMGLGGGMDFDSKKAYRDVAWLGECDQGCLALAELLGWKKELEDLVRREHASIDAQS
UniProt Q8N6T7, 13-308 limits assumed: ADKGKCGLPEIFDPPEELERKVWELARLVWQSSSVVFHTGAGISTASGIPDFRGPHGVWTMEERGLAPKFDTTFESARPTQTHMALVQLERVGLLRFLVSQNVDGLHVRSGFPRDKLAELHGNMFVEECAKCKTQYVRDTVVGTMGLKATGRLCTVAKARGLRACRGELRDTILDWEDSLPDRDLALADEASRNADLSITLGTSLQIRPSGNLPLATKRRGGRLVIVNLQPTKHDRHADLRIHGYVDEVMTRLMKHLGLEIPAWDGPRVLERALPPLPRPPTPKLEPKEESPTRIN
UniProt Q9NTG7, 114-399 limits assumed: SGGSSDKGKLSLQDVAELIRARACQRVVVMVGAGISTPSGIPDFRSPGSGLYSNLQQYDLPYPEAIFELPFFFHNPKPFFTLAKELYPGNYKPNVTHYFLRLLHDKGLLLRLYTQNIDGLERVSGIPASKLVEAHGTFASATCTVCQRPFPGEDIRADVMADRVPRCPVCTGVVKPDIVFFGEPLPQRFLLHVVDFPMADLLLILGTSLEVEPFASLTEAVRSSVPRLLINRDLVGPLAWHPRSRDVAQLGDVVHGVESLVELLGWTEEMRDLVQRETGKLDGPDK

Tests used:
Format in all cases: biochemical
Sirt5 = Sirt5 (Homo sapiens, UniProt Q9NXA8); experiment: Fluor-de-Lys peptide deacetylation assay, Sirt5; details: 100 μM compound; 0.1 mM FdL-1 peptide, 0.5 mM NAD+
Sirt2 = Sirt2 (Homo sapiens, UniProt Q8IXJ6); experiment: Fluor-de-Lys peptide deacetylation assay, Sirt2; details: 100 μM compound; 0.1 mM FdL-2 peptide, 0.5 mM NAD+
Sirt6 = Sirt6 (Homo sapiens, UniProt Q8N6T7); experiment: Fluor-de-Lys peptide deacetylation assay, Sirt6; details: 100 μM compound; 0.1 mM FdL-1 peptide, 0.5 mM NAD+
Sirt3 = Sirt3 (Homo sapiens, UniProt Q9NTG7); experiment: Fluor-de-Lys peptide deacetylation assay, Sirt3; details: 100 μM compound; 0.1 mM FdL-2 peptide, 0.5 mM NAD+

N1=C(c2nnn[nH]2)NNC(c2nnn[nH]2)=N1
--- (no such effect): Effect on the activity of Sirt5 (Sirt5) | Effect on the activity of Sirt2 (Sirt2) | Effect on the activity of Sirt6 (Sirt6) | Effect on the activity of Sirt3 (Sirt3)
